This note sets out measurements from patent publication US6258807A, “Method for treating pain” (Eli Lilly and Company, priority 1997, dated 2001).

SMILES strings stand for the structures.

For assay [1], the system named is acetic acid-induced writhing in mice. The following applies: oral doses of 1, 3, and 10 mg/kg, about 60 minutes before 0.5% acetic acid intraperitoneal.
The subject of assay [2] is tail flick latency in mice. As to conditions: oral 1, 3, and 10 mg/kg, about 60 minutes after administration.

Regarding `Cc1cc2c(s1)Nc1ccccc1N=C2N1CCN(C)CC1` [olanzapine, 2-methyl-4-(4-methyl-1-piperazinyl)-10H-thieno[2,3-b][1,5] benzodiazepine], in assay [1], the “analgesic effect, acetic acid-induced writhing (number of writhes) compared to controls” value is listed as “significant analgesic effect”. Further, in assay [2], the “tail flick latency with respect to control latencies” value is listed as “significant increases in tail flick latencies”.
